Test results from patent publication US20100029544A1, “Composition” (priority 2006, published 2010).

Procedure: Drug loading was carried out as described above. To determine the concentration of encapsulated drug, the solutions were filtered (0.45 μm) and the filtrates were dissolved in methanol and subsequently analysed using an ultraviolet-visible spectrophotometer at the wavelength of 272 nm. A propofol calibration graph was prepared using various standard solutions (0.012-0.16 mgml^−1, R^2=0.998). The filtered formulations were sized using photon correlation spectroscopy and imaged by scanning electron microscopy (SEM).

With “Quaternary Ammonium Cholesteryl Carbamate PAA [QCPAA]” the “augmentation of propofol solubility” value was 24 fold and the “propofol encapsulated / solubilised” value was 2.82 mgml^−1.
